Source: patent US20250326741A1, “GLUCOSE-DEPENDENT INSULINOTROPIC POLYPEPTIDE RECEPTOR ANTAGONISTS AND USES THEREOF” (Pfizer Inc., priority 2024, published 2025)

Biological target: T1, human Glucose-dependent Insulinotropic Polypeptide Receptor (hGIPR) (Homo sapiens, UniProt P48546)
T1 sequence (P48546 22-466): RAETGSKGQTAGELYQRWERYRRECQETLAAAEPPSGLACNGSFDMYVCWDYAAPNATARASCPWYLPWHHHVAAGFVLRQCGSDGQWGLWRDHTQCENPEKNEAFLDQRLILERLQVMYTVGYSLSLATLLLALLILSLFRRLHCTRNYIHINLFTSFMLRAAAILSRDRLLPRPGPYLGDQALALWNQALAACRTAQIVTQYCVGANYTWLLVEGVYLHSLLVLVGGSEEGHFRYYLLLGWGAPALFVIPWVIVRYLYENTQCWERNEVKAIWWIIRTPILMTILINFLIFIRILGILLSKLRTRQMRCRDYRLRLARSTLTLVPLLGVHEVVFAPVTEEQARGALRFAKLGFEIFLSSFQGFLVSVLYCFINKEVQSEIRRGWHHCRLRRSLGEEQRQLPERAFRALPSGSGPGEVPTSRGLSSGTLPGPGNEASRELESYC
Test: Functional in vitro GIPR antagonist potency assay (intracellular cAMP, HTRF, hGIP stimulation at EC80)
Type: cell-based
Conditions: geometric mean; CHO-K1 cells stably expressing human GIPR, cAMP after hGIP stimulation at EC80
Experimental: Example AA. Functional In Vitro GIPR Antagonist Potency Assay
The functional in vitro antagonist potency for test compounds was determined by monitoring intracellular cyclic adenosine monophosphate (cAMP) levels in Chinese hamster ovary (CHO)—K1 cells stably expressing the human Glucose-dependent Insulinotropic Polypeptide Receptor (hGIPR). Following agonist activation, hGIPR associates with the G-protein complex causing the Gas subunit to exchange bound guanosine diphosphate (GDP) for guanosine triphosphate (GTP), followed by dissociation of the Gas-GTP complex. The activated Gas subunit can couple to downstream effectors to regulate the levels of second messengers or cAMP within the cell. Thereby, determination of intracellular cAMP levels allows for pharmacological characterization. Intracellular cAMP levels are quantitated using a homogenous assay utilizing the Homogeneous Time Resolved Fluorescence (HTRF) technology from Perkin Elmer. The method is a competitive immunoassay between native cAMP produced by the cells and cAMP labelled with the acceptor dye, d2. The two entities compete for binding to a monoclonal anti-cAMP antibody labeled with cryptate. The specific signal is inversely proportional to the concentration of cAMP in the cells.
Test compounds were solubilized to a concentration of 30 mM in 100% dimethyl sulfoxide (DMSO). An 11-point dilution series using 1 in 3.162-fold serial dilutions was created in 100% DMSO with a top concentration of 8 mM. The serially diluted compound was spotted with an Echo Acoustic liquid handler (Beckman Coulter) into a 384-well assay plate (Corning, Cat No. 3824) at 50 nL/well with duplicate points at each concentration, at a 200× final assay concentration (FAC). The final compound concentration range in the assay was 40 μM to […], with a final DMSO concentration of 0.5%.
Frozen assay-ready vials (at 1×10^7 cells/vial) of CHO-K1 cells stably expressing the Gs-coupled human GIPR receptor (Eurofins, DiscoverX, Cat No. 95-0146C2) were thawed, counted, and resuspended in assay buffer consisting of Hank's Balanced Salt Solution (HBSS, Lonza Cat No. 10-527) containing 20 mM (4-(2-hydroxyethyl)-1-piperazineethanesulfonic acid (HEPES, Lonza, Cat No. 17-737E), 0.1% bovine serum albumin (BSA, Sigma, Cat No. A7979), and 200 μM 3-isobutyl-1-methylxanthine (IBMX, Sigma, Cat No. 15879) at a density of 4×10^5 cells/mL. Cells were added to assay plate (5 μL/well of 4×10^5 cells/mL stock for 2,000 cells/well final) containing 50 nL of 200×FAC test compound, and incubated at 37° C. (95% O2: 5% CO2) for 2 hours, with micro-clime lids (Labcyte, Cat No. LLS-0310). Following the 2-hour cell and compound incubation, a stimulation mix comprised of hGIPR agonist human glucose-dependent insulinotropic polypeptide (hGIP, full length, Sigma Cat No. G2269) in assay buffer/0.1% DMSO was added to the assay plate (5 μL/well) at an estimated EC80 FAC (based on previous hGIP agonist curves) and incubated for another 30 minutes with micro-clime lids at 37° C. (95% O2: 5% CO2), after which intracellular cAMP levels were quantified as per Perkin Elmer's protocol (5 μL of d2 and then 5 μL cryptate, incubated for 1 hour at room temperature). Emission spectra of samples were measured on a Pherastar plate reader (BMG Labtech Inc) using a HTRF protocol (excitation, 320 nm; emission, 665 nm/620 nm).
hGIP EC50 was determined daily by incubating cells (5 μL/well of 4×10^5 cells/mL stock, for 2,000 cells/well final) with 50 nL 100% DMSO for 2 hours at 37° C. (95% O2: 5% CO2), with a micro-clime lid. Following the 2-hour cell and DMSO incubation, a hGIP concentration response curve at 2×FAC (12-point curve using 1 in 3 serial dilutions, with triplicate points at each concentration, 100 nM final top concentration) in assay buffer/1% DMSO was added (5 μL/well) and incubated for a further 30 minutes with a micro-clime lid at 37° C. […]

Question: Which IC50 does the source give for `Cc1cc(NC(=O)N2CCC[C@@H]2C(=O)Nc2ccn(-c3ccc(C(=O)O)cc3F)n2)ccc1C(C)C` [Example 7, 3-Fluoro-4-{3-[(1-{[3-methyl-4-(propan-2-yl)phenyl]carbamoyl}-D-prolyl)amino]-1H-pyrazol-1-yl}benzoic Acid] here?
Answer: The IC50 was 10 nM.

Question: With `CC(C)c1ccc(NC(=O)N2CCC[C@@H]2C(=O)Nc2ccn(-c3ccc(C(=O)O)cc3)n2)cc1F` [Example 1, 4-{3-[(1-{[3-Fluoro-4-(propan-2-yl)phenyl]carbamoyl}-D-prolyl)amino]-1H-pyrazol-1-yl}benzoic Acid] as the compound, how does the IC50 read?
Answer: The IC50 was 6.9 nM.

Question: How did the IC50 turn out when `Cc1cc(-n2ccc(NC(=O)[C@H]3CCCN3C(=O)Nc3ccc(C(C)C)c(F)c3)n2)ccc1C(=O)O` [Example 5, 4-{3-[(1-{[3-Fluoro-4-(propan-2-yl)phenyl]carbamoyl}-D-prolyl)amino]-1H-pyrazol-1-yl}-2-methylbenzoic Acid] was run?
Answer: The IC50 was 8.4 nM.

Question: For `Cc1cc(-n2ccc(NC(=O)[C@H]3CCCN3C(=O)Nc3ccc(C(C)C)c(C)c3)n2)c(F)cc1C(=O)O` [Example 12, 5-Fluoro-2-methyl-4-{3-[(1-{[3-methyl-4-(propan-2-yl)phenyl]carbamoyl}-D-prolyl)amino]-1H-pyrazol-1-yl}benzoic Acid], which IC50 is on record?
Answer: The IC50 was 8.7 nM.

Question: Which IC50 does the source give for `Cc1cc(-n2ccc(NC(=O)[C@H]3CCCN3C(=O)Nc3ccc(C(F)(F)F)cc3)n2)ccc1C(=O)O` [Example 4, 2-Methyl-4-{3-[(1-{[4-(trifluoromethyl)phenyl]carbamoyl}-D-prolyl)amino]-1H-pyrazol-1-yl}benzoic Acid] here?
Answer: Its IC50 is 18 nM.

Question: Which IC50 does the source give for `Cc1cc(NC(=O)N2CCC[C@@H]2C(=O)Nc2ccn(-c3ccc(C(=O)O)c(C)c3F)n2)ccc1C(C)C` [Example 13, 3-Fluoro-2-methyl-4-{3-[(1-{[3-methyl-4-(propan-2-yl)phenyl]carbamoyl}-D-prolyl)amino]-1H-pyrazol-1-yl}benzoic Acid] here?
Answer: The IC50 was 12 nM.

Question: With `Cc1c(C(=O)O)ccc(-n2ccc(NC(=O)[C@H]3CCCN3C(=O)Nc3ccc(C(C)C)cc3)n2)c1F` [Example 10, 3-Fluoro-2-methyl-4-{3-[(1-{[4-(propan-2-yl)phenyl]carbamoyl}-D-prolyl)amino]-1H-pyrazol-1-yl}benzoic Acid] as the compound, how does the IC50 read?
Answer: The IC50 was 7.4 nM.
